{
  "source": "patent US5409946A",
  "about": "“Isoxazole, isothiazole and pyrazole compounds that enhance cognitive function” (Abbott Laboratories, priority 1993, dated 1995)",
  "target": "muscarinic receptors",
  "type": "binding, rat",
  "conditions": "Table 2",
  "experimental": "The potencies of ligand binding at central muscarinic binding sites were determined by analysis of competition with the specific muscarinic receptor radioligand [^3 H]-quinuclidinyl benzilate ([^3 H]-QNB). […] Competition between various concentrations of putative nicotinic ligand compounds and 0.2 nM [^3 H]-QNB was performed at 25° C. in an assay volume of 1 mL. After 75 minutes, the bound radioligand was separated by vacuum filtration on Whatman GF/B glass fiber filters. Non-specific binding was defined as radioactivity remaining in the presence of 10 μM atropine. Competition curves were analyzed for Ki values as described above for binding to the nicotinic receptor.",
  "data": [
    {"smiles": "CN1CCCC1c1cccnc1", "note": "(single isomer, unassigned; (-)) [(-)-Nicotine]", "values": [
      {"measurement": "Ki", "value": 587, "unit": "µM"}
    ]}
  ]
}
